Laboratory results reported in US9596854B2, “Fungicidal penflufen mixtures” (priority 2010, dated 2017).

Tested on: Poria placenta
Assay: Synergism test: MIC of radial hyphae growth on malt extract/peptone agar, SI by Kull
Format: cell-based
Details: Example 2, penflufen/DCOIT; nutrient agar, 26° C

4,5-dichloro-N-octylisothiazolin-3-one
MIC against Poria placenta: 20.0 ppm
